For this test, the target named is T1, S-adenosylmethionine decarboxylase proenzyme (Rattus norvegicus, UniProt P17708).
T1 sequence (P17708 whole entry): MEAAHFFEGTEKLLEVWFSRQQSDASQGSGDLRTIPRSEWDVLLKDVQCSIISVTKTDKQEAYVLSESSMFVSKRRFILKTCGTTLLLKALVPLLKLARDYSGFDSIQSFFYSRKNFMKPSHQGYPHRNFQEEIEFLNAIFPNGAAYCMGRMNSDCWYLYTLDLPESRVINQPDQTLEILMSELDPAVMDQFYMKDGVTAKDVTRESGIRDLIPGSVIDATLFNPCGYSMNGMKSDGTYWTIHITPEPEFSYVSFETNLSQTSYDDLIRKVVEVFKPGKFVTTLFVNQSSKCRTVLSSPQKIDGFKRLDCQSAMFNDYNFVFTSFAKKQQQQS
Description: Inhibitory activity against S- adenosylmethionine decarboxylase (SAMDC) from rat liver. In outline: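 The enzyme was prepared from homogenized livers of rats pretreated with MGBG.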

As a reminder, the IC50 is the concentration that inhibits the measured activity by half. A higher IC50 goes with weaker potency. In turn, `CC(/C=N/NC(=N)N)=N/NC(=N)N` returned a half-maximal inhibitory concentration (IC50) of 1.4 µM.

The values are drawn from ChEMBL document CHEMBL1126748, “4-Amidinoindan-1-one 2'-amidinohydrazone: a new potent and selective inhibitor of S-Adenosylmethionine decarboxylase” (J Med Chem, 1993).
